Patent US7803407B2 (priority 1997, dated 2010)
Like-named read-outs stand apart in the source and are kept apart here.

Conditions: for shelf-life stability of 300 ppm silver citrate: FIG. 5, 1 to 4 weeks

Substance: silver citrate
- shelf-life stability (1.0% citric acid solution, pH 6.0, FIG. 5, 1, 2, 3 and 4 weeks): not stable at high concentrations
- shelf-life stability of 300 ppm silver citrate (1.0% citric acid solution): did not remain
- shelf-life stability of 300 ppm silver citrate (10% citric acid solution): stable
